Assay results from patent US20070275877A1, “Methods for Treating or Ameliorating Ghrelin-Associated Diseases and Disorders” (AMYLIN PHARMACEUTICALS, INC., priority 2003, published 2007).

Legend:
[1] = Adsorption onto glass container in liquid form; type: physicochemical
Excerpt: However, with regard to amylin, amylin agonist, or amylin antagonist which do have such a tendency when in liquid form, a surfactant should be used in their formulation. These formulations may then be lyophilized. Surfactants frequently cause denaturation of protein, both of hydrophobic disruption and by salt bridge separation. Relatively low concentrations of surfactant may exert a potent denaturing activity, because of the strong interactions between surfactant moieties and the reactive sites on proteins. However, judicious use of this interaction can stabilize proteins against interfacial or surface denaturation. Surfactants which could further stabilize the peptide may optionally be present in the range of about 0.001 to 0.3% (w/v) of the total formulation and include polysorbate 80 (i.e., polyoxyethylene(20) sorbitan monooleate), CHAPS® (i.e., 3-[(3-cholamidopropyl)dimethylammonio] 1-propanesulfonate), Brij® (e.g., Brij 35, which is (polyoxyethylene (23) lauryl ether), poloxamer, or another non-ionic surfactant.

[2] = treated test animals; e.g., provoking marked hyperlactemia followed by hyperglycemia; cited from earlier work
[3] = cited from earlier work

CC[C@H](C)[C@H](NC(=O)[C@@H]1CCCN1C(=O)CNC(=O)[C@H](Cc1ccccc1)NC(=O)[C@H](CC(N)=O)NC(=O)[C@H](CC(N)=O)NC(=O)[C@H](CO)NC(=O)[C@H](CO)NC(=O)[C@H](Cc1c[nH]cn1)NC(=O)[C@@H](NC(=O)[C@H](CC(C)C)NC(=O)[C@H](Cc1ccccc1)NC(=O)[C@H](CC(N)=O)NC(=O)[C@H](C)NC(=O)[C@H](CC(C)C)NC(=O)[C@H](CCCNC(=N)N)NC(=O)[C@H](CCC(N)=O)NC(=O)[C@@H](NC(=O)[C@H](C)NC(=O)[C@@H]1CSSC[C@H](NC(=O)[C@@H](N)CCCCN)C(=O)N[C@@H](CC(N)=O)C(=O)N[C@@H]([C@@H](C)O)C(=O)N[C@@H](C)C(=O)N[C@@H]([C@@H](C)O)C(=O)N1)[C@@H](C)O)C(C)C)C(=O)N[C@@H](CC(C)C)C(=O)N1CCC[C@H]1C(=O)N1CCC[C@H]1C(=O)N[C@H](C(=O)N[C@@H](CC(N)=O)C(=O)N[C@H](C(=O)NCC(=O)N[C@@H](CO)C(=O)N[C@@H](CC(N)=O)C(=O)N[C@H](C(=O)N[C@@H](Cc1ccc(O)cc1)C(N)=O)[C@@H](C)O)C(C)C)[C@@H](C)O [pramlintide, ^25,28,29Pro-h-amylin]
tendency to adsorb onto the glass in a glass container [1]: does not have a tendency to adsorb onto the glass | amylin activity in vivo [2]: show amylin activity in vivo | solubility characteristics compared to human amylin [3]: more desirable
